Values quoted from earlier work as cited in patent US7432414B2, “Transgenic mouse having an amyloid precursor protein with a modified beta secretase cleavage site” (Merck & Co., Inc., priority 2004, dated 2008).

Protein sequences, listed by entry. Tags and fused reporters are not part of them. Residues count along the entry.
UniProt P56817, 46-501: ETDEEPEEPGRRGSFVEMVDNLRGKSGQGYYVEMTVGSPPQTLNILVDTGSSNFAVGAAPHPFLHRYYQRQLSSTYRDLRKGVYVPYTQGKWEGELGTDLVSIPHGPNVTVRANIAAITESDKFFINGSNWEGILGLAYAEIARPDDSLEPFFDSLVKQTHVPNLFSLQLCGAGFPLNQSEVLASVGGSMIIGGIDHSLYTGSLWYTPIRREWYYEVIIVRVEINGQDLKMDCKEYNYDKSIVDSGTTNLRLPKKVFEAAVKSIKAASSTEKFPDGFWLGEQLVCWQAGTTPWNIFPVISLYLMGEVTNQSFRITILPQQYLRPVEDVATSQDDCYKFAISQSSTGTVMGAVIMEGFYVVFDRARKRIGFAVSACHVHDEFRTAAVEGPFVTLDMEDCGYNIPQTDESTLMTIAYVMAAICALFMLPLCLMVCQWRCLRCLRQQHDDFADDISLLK

Target: T1, recombinant β secretase produced in E. coli (Homo sapiens, UniProt P56817)
T1 construct: host or cells: E. coli
Conditions: Ghosh et al., 2000, J. Am. Chem. Soc. 122:3522-3523, read-out: Ki towards recombinant β secretase

Q: With VNLAAEF [OM99-1] as the substance, how does the Ki read?
A: ~68 nM
